Source: patent US10226471B2, “Modified-release dosage forms of 5-HT2C agonists useful for weight management” (Arena Pharmaceuticals, Inc., priority 2010, dated 2019)

Assay: Phase 3 clinical trials of lorcaserin for weight management
Details: pivotal phase 3 clinical trial program, treated for up to two years

Q: With `C[C@H]1CNCCc2ccc(Cl)cc21` [Compound 1] as the compound, how does the “patients achieved at least 5% weight loss” value read?
A: The value was “About two-thirds”.
